Values quoted from earlier work, collected in patent publication US20210393618A1, “BUPRENORPHINE TO TREAT RESPIRATORY DEPRESSION” (published 2021).

By UniProt entry, the sequences of proteins in these tests, tags left out.
UniProt P35372, whole entry: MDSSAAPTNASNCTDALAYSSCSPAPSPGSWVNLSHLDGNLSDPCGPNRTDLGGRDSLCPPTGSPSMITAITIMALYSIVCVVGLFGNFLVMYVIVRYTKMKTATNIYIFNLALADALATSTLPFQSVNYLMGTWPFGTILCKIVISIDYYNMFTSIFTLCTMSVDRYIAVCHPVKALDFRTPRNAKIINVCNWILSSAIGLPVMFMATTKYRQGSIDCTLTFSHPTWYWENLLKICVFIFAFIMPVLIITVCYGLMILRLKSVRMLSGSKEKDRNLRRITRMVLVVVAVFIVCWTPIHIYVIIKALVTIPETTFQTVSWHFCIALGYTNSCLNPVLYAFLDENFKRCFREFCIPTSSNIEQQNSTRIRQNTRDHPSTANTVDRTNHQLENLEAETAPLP

Target: μ-opioid receptor (Homo sapiens, UniProt P35372)

SMILES: CO[C@]12CC[C@@]3(C[C@@H]1[C@](C)(O)C(C)(C)C)[C@H]1Cc4ccc(O)c5c4[C@@]3(CCN1)[C@H]2O5
- intrinsic activity as agonist: weak intrinsic activity
